Here are results for 1 compound from ChEMBL document CHEMBL1125142, “Highly selective kappa-opioid analgesics. 3. Synthesis and structure-activity relationships of novel N-[2-(1-pyrrolidinyl)-4- or -5-substituted-cyclohexyl]arylacetamide derivatives” (1990).

A short description of this assay: In vitro binding selectivity for mu to kappa opioid receptors.

Take `CN(C(=O)Cc1cccc2occc12)[C@@H]1CC[C@]2(CCCO2)C[C@H]1N1CCCC1`: the Ratio amounted to 1520.
